The list is not random: actives were taken first. Their share in the collection is about 2.3%.
GRP78 ERSR act: ER stress response induction in glioma; U87-MG GRP78 promoter luciferase reporter, 16 h; Potency, µM, inactives show top-dose activation, hits mostly activators; 420,000 compounds, 0.02% hits; also: potency is read from the fitted curve at half-maximal effect; series mostly up to about 76 µM; % of control where 0% means no effect; nearly all actives have a fitted effect of over 35% in size
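Stably transfected U87-MG glioma cells carrying a GRP78-based luciferase sensor; 16 h compound incubation. Luminescence end-point read 10 min after Bright-Glo addition at room temperature.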
Nrf2 activator: Nrf2 pathway activation; Potency, µM (top dose mostly 46.1 µM), inactives show at the highest dose activation, actives largely listed as activators; AREc32 ARE-luciferase reporter (MCF7-derived line), luminescence, 24 h; 410,000 compounds, 0.31% hits; also: potency is read from the fitted curve at half-maximal effect; % of control where 0% means no effect; nearly all actives have a fitted effect of over 65% in size
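AREc32 cells carrying an ARE-driven firefly luciferase, 1000 cells/well in OPTI-MEM with 5% FBS, dosed after overnight attachment and incubated 24 hr at 37 deg C. Steady-Glo luminescence read after 30 min at RT.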
Nrf2 block: blocks Nrf2 signaling | A549 ARE-Fluc reporter, luciferase luminescence, 18-24 h | Potency, µM (series often up to 46 µM), for inactives: top-dose activity change, negative = inhibition, most hits filed as inhibitors | 360,000 compounds, 2.1% hits | AID 504444; also: potency is read from the fitted curve at half-maximal effect; % is scaled to controls: 0 for no effect and ±100 for the full control effect; nearly all actives have a fitted effect of over 60% in size
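Concentration-response testing used A549 ARE_Fluc cells at 5000 cells/well. Following an 18-24 h compound incubation, viability was read by fluorescence (Ex 405/Em 525) and luciferase output by luminescence.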
miR-21 FLuc: miR-21 reporter, rising signal; Potency, µM (titrated, usually from 38.3 µM), without a hit: at the highest dose reporter change, positive = more light; AID 2288; 340,000 tested, under 10 active; HeLa miR-21 FLuc reporter, luciferase, 48 h; active = well fitted rising curve with a large enough effect; inconclusive = small, poorly fitted or top-dose-only effect; inactive = no such curve, though single readings can be large or run the other way;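 note: % of control where 0% means no effect; miR-21 action dims this reporter so a rising signal means less miR-21 action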
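Luminescence from a firefly luciferase reporter carrying a miR-21 binding site downstream, stably expressed under a CMV promoter in HeLa cells that make miR-21 endogenously, reports miRNA modulation after 48 h compound exposure up to approximately 40uM final.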
A549 viability: counter-screen for Nrf2 inhibitors: cytotoxicity in A549 cells | A549 ARE-Fluc cells, CellTiter-Fluor viability, 18-24 h | Potency, µM (series often up to 46 µM), for the others: at the highest dose activity change, negative = cytotoxicity, actives largely listed as inhibitors | 390,000 compounds, 0.16% hits | AID 504648; also: potency is read from the fitted curve at half-maximal effect; % is scaled to controls: 0 for no effect and ±100 for the full control effect
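A549 ARE-Fluc cells in 5% FBS OPTI-MEM, 5000 cells/well, rested 2 h then exposed to compounds in concentration-response for 18-24 h at 37 °C. Viability by CellTiter-Fluor fluorescence (Ex 405/Em 525) after 30 min; luciferase luminescence (BugLite, 15 min, RT) read afterwards.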
Mito fusion yeast: blocks mitochondrial division or promotes mitochondrial fusion | S. cerevisiae fusion-defective mutant growth rescue, CellTiterGlo 48 h | Potency, µM (titrated, usually from 46.1 µM), without a hit: at the highest dose growth rescue (activation), most hits filed as activators | 320,000 compounds, 0.23% hits; also: potency is read from the fitted curve at half-maximal effect; % of control where 0% means no effect; nearly all actives have a fitted effect of over 45% in size
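Read-out: ATP-based luminescence (CellTiterGlo, 10 min ambient) reporting growth of fusion-defective ts yeast after 48 hours at 37C on glycerol/ethanol YPEG medium in the presence of compound.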
Starred values were filed as active, the others as inactive; ? = inconclusive; . = no result given; [ ] = another dose, or the depositor's remark. Unless noted, calls follow the shape of the dose curve; as a rule, active = well fitted curve in the direction sought with a large enough effect; inconclusive = small, poorly fitted or top-dose-only effect, or another doubt; inactive = no such curve, though single readings can be large; an effect the other way counts as inactive or inconclusive.

Screens by letter – A = GRP78 ERSR act; B = Nrf2 activator; C = Nrf2 block; D = miR-21 FLuc; E = A549 viability; F = Mito fusion yeast
> Cc1cc(NC(=O)CSc2nc(-c3ccco3)cc(C(F)(F)F)n2)n(-c2ccccc2)n1
  A: 0% | B: -1% | C: ? | D: 14% | E: ? | F: 2%

> Cc1cc(NC(=O)CCCSc2nc(-c3ccco3)cc(C(F)(F)F)n2)n(-c2ccccc2)n1
  A: -7% | B: 3% | C: 26µM* | D: 7% | E: -17% | F: 9%

> Cc1cccc(C)c1NC(=O)CN(C)C(=O)c1ccc(COc2ccccc2)cc1
  A: -10% | B: 2% | C: 5% | D: -26% | E: 1% | F: 3%

> CCc1nc2cccnc2n1-c1ccc(CC(=O)O)cc1
  A: -5% | B: -1% | C: -12% | D: -4% | E: 3% | F: 5%

> Cc1ccc(NC(=O)Cc2ccc(-n3c(C)nc4cccnc43)cc2)c(Cl)c1
  A: -4% | B: 0% | C: 21µM* | D: ? | E: -11% | F: .

> O=C(CCc1nnc(CCCc2ccccc2)o1)NC(C1CC1)C1CC1
  A: 1% | B: 2% | C: ? | D: -59% | E: -2% | F: 8%

> Cc1cc(-c2ccccc2)nc(SCC(=O)c2cccc([N+](=O)[O-])c2)n1
  A: -4% | B: 3% | C: ? | D: -1% | E: -4%[1.84 µM] | F: 6%

> COc1ccc(-c2cc(C)nc(SCC(=O)c3cccc([N+](=O)[O-])c3)n2)cc1
  A: -3% | B: 0% | C: 21µM* | D: 0% | E: -22% | F: -3%

> N#CC1=C(SCC(=O)c2ccccc2)NC2=C(C(=O)CCC2)C1c1ccco1 (stereo not drawn)
  A: -5% | B: 9% | C: -27% | D: -15% | E: ? | F: 22%

> COc1ccc(C2(c3ccc(OC)cc3)NC(=O)N(CC(=O)NCC(F)(F)F)C2=O)cc1
  A: -6% | B: -1% | C: -7% | D: 0% | E: -3% | F: -1%

> CCOC(=O)c1ccc(NC(=O)CSc2nnc(C3CC3)n2CC)cc1
  A: -5% | B: 0% | C: 11% | D: -1% | E: 1% | F: 29%

> Cc1ccc(NC(=O)CN2CCc3cc4c(cc3C2C)OCCCO4)cc1 (stereo not drawn)
  A: -3% | B: 0% | C: -20% | D: 0% | E: 4% | F: -8%

> COc1cc2c(cc1OC)C(C)N(CC(=O)Nc1ccc(C)c(S(=O)(=O)N3CCOCC3)c1)CC2 (stereo not drawn)
  A: 7% | B: 4% | C: -3% | D: 17% | E: -3% | F: -6%

> Cc1ccc(NC(=O)CN2CCc3cc4c(cc3C2C)OCCCO4)cc1C (stereo not drawn)
  A: -2% | B: 0% | C: 26µM* | D: 0% | E: -15% | F: -2%

> CC1c2cc3c(cc2CCN1CC(=O)Nc1ccccc1)OCCCO3 (stereo not drawn)
  A: -4% | B: -1% | C: 18µM* | D: 2% | E: -11% | F: -3%

> O=C(CN(Cc1ccc(F)cc1)C(=O)c1csnn1)NCc1ccccc1
  A: -4% | B: 0% | C: -22% | D: -3% | E: 2% | F: -5%

> Cn1c(=O)c2c(nc(Cl)n2CCOc2ccccc2)n(C)c1=O
  A: -4% | B: 0% | C: 26µM* | D: 2% | E: 4% | F: 0%

> Cn1c(=O)c2c(nc(Br)n2Cc2ccccc2Cl)n(C)c1=O
  A: -6% | B: -1% | C: . | D: -1% | E: -1% | F: 13%

> Cn1c(=O)c2c(nc(N3CCCCCC3)n2Cc2cccc3ccccc23)n(C)c1=O
  A: -4% | B: 0% | C: ? | D: -3% | E: 23µM* | F: 21%

> CCCCn1c(Cl)nc2c1c(=O)n(C)c(=O)n2C
  A: -4% | B: 0% | C: 4% | D: -2% | E: -10% | F: 3%

> COc1ccccc1Oc1nc2c(c(=O)n(C)c(=O)n2C)n1Cc1cccc(Br)c1
  A: -3% | B: 0% | C: 16µM* | D: -7% | E: 0% | F: .

> CCOc1nc2c(c(=O)n(C)c(=O)n2C)n1Cc1ccccc1Cl
  A: -3% | B: 0% | C: 18µM* | D: 1% | E: -11% | F: 20%

> Cc1ccccc1OCC(=O)Nc1ccc2c(c1)Cc1ccccc1-2
  A: -1% | B: 0% | C: . | D: -8% | E: 6% | F: -2%

> Cc1ccccc1OCC(=O)Nc1ccc2c(c1)C(=O)c1ccccc1C2=O
  A: 8% | B: 0% | C: 15µM* | D: -49% | E: ? | F: ?

> CC(C)(C)C(=O)Nc1ccc2c(c1)C(=O)C(=O)c1ccccc1-2
  A: . | B: . | C: 21µM* | D: . | E: ? | F: .

> Cn1c(-c2ccc3nc(N)sc3c2)nc2cc(N)ccc21
  A: 2% | B: 1% | C: 3% | D: -70% | E: -1% | F: 0%

> O=C(NCCc1csc(-c2ccc(C(F)(F)F)cc2)n1)c1ccccc1Cl
  A: -3% | B: 4% | C: . | D: 4% | E: 0% | F: .

> O=C(NCCc1csc(-c2ccc(C(F)(F)F)cc2)n1)c1cccs1
  A: 3% | B: 0% | C: 26µM* | D: 8% | E: -2% | F: 29%

> CSCc1c(C(=O)N2CCCc3ccccc32)oc2ccccc12
  A: -2% | B: 2% | C: 2% | D: . | E: -8% | F: 14%

> CC(C)(C)c1csc(NC(=O)c2ccncc2)n1
  A: 1% | B: 3% | C: 16µM* | D: 9% | E: -17% | F: -4%

> COc1ccc(N(Cc2ccccc2)S(=O)(=O)c2cccc(C(=O)Nc3ncccc3C)c2)cc1
  A: -2% | B: 16% | C: 18µM* | D: . | E: -8% | F: 20%

> CCOc1ccc2oc(C(=O)NC3CCN(Cc4ccccc4)CC3)c(C)c2c1
  A: -2% | B: 0% | C: ? | D: -1% | E: 1% | F: 10%

> CCOC(=O)c1c(C)oc2nc(C)nc(NCc3ccc(C)cc3)c12
  A: -3% | B: 0% | C: -21% | D: -3% | E: -2% | F: .

> C/[N+]([O-])=C\C1C(=O)CCCC1=O
  A: -5% | B: 0% | C: 1% | D: -2% | E: -1% | F: 6%

> O=C(/C=C/Nc1ccc(F)cc1F)c1ccco1
  A: -12% | B: 6.3µM* | C: ? | D: 2% | E: ? | F: 0%

> O=C(/C=C/C=C/c1ccccc1)c1ccco1
  A: 21% | B: 11µM* | C: 29% | D: -37% | E: -2% | F: -12%

> O=C(/C=C/Nc1ccccc1O)c1ccco1
  A: -1% | B: 11µM* | C: 4% | D: -62% | E: -10% | F: -5%

> O=C(/C=C/c1ccc(Br)cc1)c1ccco1
  A: -9% | B: 4% | C: -7% | D: -4% | E: -5% | F: -1%

> CCN(C(=O)CCN1C(=O)c2ccccc2C1=O)C1CCCCC1
  A: -4% | B: 0% | C: 7% | D: -1% | E: -1% | F: 4%

> COC1=CC(=O)c2ccccc2C1=O
  A: -10% | B: -3% | C: 23µM* | D: . | E: ? | F: .

> COC1=CC(=O)C=C(OC)C1=O
  A: -11% | B: -3% | C: ? | D: . | E: -14% | F: .

> CCOc1ccc(CNC(=O)c2ccc3oc(=O)n(Cc4ccccc4)c3c2)cc1
  A: -1% | B: 4% | C: . | D: 8% | E: -4% | F: .

> COc1ccc(Cn2c(SCc3ccc(C(=O)NC4CCCCC4)cc3)nc3cccnc32)cc1
  A: -2% | B: 5% | C: 18µM* | D: 2% | E: ? | F: .

> O=C(NCCc1cccs1)c1ccc(Cn2c(SCc3ccc(F)cc3)nc3cccnc32)cc1
  A: -2% | B: 4% | C: 18µM* | D: -2% | E: ? | F: .

> O=C(NCc1cccs1)c1ccc(Cn2c(SCc3ccccc3)nc3cccnc32)cc1
  A: 3% | B: 0% | C: 26µM* | D: -1% | E: ? | F: .

> O=C(NCc1cccs1)c1ccc(Cn2c(SCc3ccc(F)cc3)nc3cccnc32)cc1
  A: 1% | B: 0% | C: ? | D: 5% | E: ? | F: .

Whole records, looked up by structure. Order of screens: GRP78 ERSR act, Nrf2 activator, Nrf2 block, miR-21 FLuc, A549 viability, Mito fusion yeast
O=C(/C=C/Nc1ccccc1O)c1ccco1 in the list: -1%, 11µM*, 4%, -62%, -10%, -5%
O=C(/C=C/c1ccc(Br)cc1)c1ccco1 in the list: -9%, 4%, -7%, -4%, -5%, -1%

Some of these compounds in order of count of non-hydrogen atoms, ascending:
Screens by letter – A = GRP78 ERSR act; B = Nrf2 activator; C = Nrf2 block; D = miR-21 FLuc; E = A549 viability; F = Mito fusion yeast
> COC1=CC(=O)c2ccccc2C1=O
  A: -10% | B: -3% | C: 23µM* | D: . | E: ? | F: .

> O=C(/C=C/Nc1ccccc1O)c1ccco1
  A: -1% | B: 11µM* | C: 4% | D: -62% | E: -10% | F: -5%

> CCOc1ccc(CNC(=O)c2ccc3oc(=O)n(Cc4ccccc4)c3c2)cc1
  A: -1% | B: 4% | C: . | D: 8% | E: -4% | F: .

Bioassay records deposited in PubChem BioAssay by National Center for Advancing Translational Sciences (NCATS).
